# Results taken from ChEMBL document CHEMBL4177638, “Challenges in the development of an M4 PAM preclinical candidate: The discovery, SAR, and biological characterization of a series of azetidine-derived tertiary amides” (Bioorg Med Chem Lett, 2017).
# The chains behind the UniProt entries cited, without tags or fusion partners.
# UniProt P08173, whole entry: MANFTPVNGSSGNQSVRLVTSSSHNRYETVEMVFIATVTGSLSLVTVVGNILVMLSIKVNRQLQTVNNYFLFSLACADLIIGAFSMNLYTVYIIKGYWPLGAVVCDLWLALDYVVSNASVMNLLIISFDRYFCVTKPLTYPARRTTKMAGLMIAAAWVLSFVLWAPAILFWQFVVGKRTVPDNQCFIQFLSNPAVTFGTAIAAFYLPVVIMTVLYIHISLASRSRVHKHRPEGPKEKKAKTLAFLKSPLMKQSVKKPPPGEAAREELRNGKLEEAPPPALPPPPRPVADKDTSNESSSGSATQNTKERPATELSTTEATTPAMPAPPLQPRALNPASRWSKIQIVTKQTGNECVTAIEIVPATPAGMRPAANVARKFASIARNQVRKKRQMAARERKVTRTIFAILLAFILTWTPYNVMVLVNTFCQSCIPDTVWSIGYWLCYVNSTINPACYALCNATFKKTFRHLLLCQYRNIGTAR
# Biological target: Muscarinic acetylcholine receptor M4 (Homo sapiens, UniProt P08173)
# Test: Positive allosteric modulation of human M4 receptor expressed in CHO cells co-expressing Gqi5 assessed as increase in acetylcholine-induced calcium mobilization relative to acetylcholine
# Format: functional, cell-based
compound,measurement,value
Cc1nnc2sc(C(=O)NCc3ccc(S(=O)(=O)C(F)(F)F)cc3)c(N)c2c1C,%max,74%
